AlphaSeq binding of Ab-91 heavy chain variants to a spike HR2 peptide

Antigen: PDVDLGDISGINAS, a 14-residue peptide of the SARS-CoV-2 spike HR2 region.

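The parent was found by panning a naive human phage display library on the peptide. Variants in AAYL51 differ from the parent at up to three CDR positions; double and triple changes were sampled at random. The scFvs were displayed on barcoded MATa yeast, the peptide on MATalpha yeast. Pairs that bind mate more often; barcode pairs of the diploids are counted by sequencing. The ratio of observed to expected reads was calibrated, replicate by replicate, on BCL2-family standards whose Kd was known from biolayer interferometry. Each pool was mated in three replicate cultures.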

The variants keep the light chain, the linker and the frameworks of Ab-91 (scFv order VL, the linker GGGGSGGGGSGGGGS, VH).
VL: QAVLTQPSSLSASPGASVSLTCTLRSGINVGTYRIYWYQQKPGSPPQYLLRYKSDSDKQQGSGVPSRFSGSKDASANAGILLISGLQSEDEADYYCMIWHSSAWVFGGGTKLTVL
VH: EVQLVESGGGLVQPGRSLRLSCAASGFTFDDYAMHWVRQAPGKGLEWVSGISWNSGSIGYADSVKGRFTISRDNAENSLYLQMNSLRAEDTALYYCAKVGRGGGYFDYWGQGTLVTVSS

Each variant is given by its three heavy chain CDRs, as the data file delimits them; those of the parent are GFTFDDYAMH, GISWNSGSIGYADSVK, VGRGGGYFDY.
Values are log10 of the apparent Kd in nM; lower means stronger binding.
A pair that was not seen in that replicate is written "nd"; this usually means weak binding, but a binder can also be missed.

CDR-H1	CDR-H2	CDR-H3	log10 Kd (nM) by replicate	empty controls
GFTFDDYAMH	GISRNSGSPGYRDSVK	VGRGGGYFDY	4.36 nd nd	3 of 9 (4.77)
GFTFDDYAMH	GIDWNYGSIGYADSVK	NGRGGGYFDY	nd nd nd	0 of 9
GFTFNDGAMH	GISWNSGSIGYADSVI	VGRGGGYFDY	nd nd nd	0 of 9
GLTFDDYAMH	GIEANSGSIGYADSVK	VGRGGGYFDY	3.76 nd 2.86	1 of 9 (3.19)
GFTSDDYAMH	GISWNSGSIGAADMVK	VGRGGGYFDY	3.44 nd nd	2 of 9 (4.46)
GFTFDDYAMH	GIAWNSGKIGYADSVK	VGRGGGYFDY	nd nd nd	0 of 9
GFTFDDYAMH	GHSWNGGSIGYADSVK	VGRGGGYMDY	nd nd nd	0 of 9
GFKFDDYAMQ	NISWNSGSIGYADSVK	VGRGGGYFDY	5.01 4.84 5.87	5 of 9 (4.79)
GFNFDDYAMH	GISWTSGSIGYADSVK	VGRGGGYFDV	1.73 1.54 1.18	6 of 9 (5.32)
GFTEDDYAMH	GISWNSGSIGYACSVR	VGRGGGYFDY	nd nd nd	2 of 9 (3.55)
GFMFDDYAMH	GISWNSGSIGYALSVK	VGRGGGYFDF	nd nd nd	0 of 9
GFTFDDYAMH	HISWNSGSIGYEDSVK	VGRNGGYFDY	nd nd nd	0 of 9
GFTFDDYAMA	GISWNSGSIGYAYSVK	VGRFGGYFDY	nd nd nd	0 of 9
GFTFDDYADH	GISWNSSSIGYADSVK	VGRGGGYFIY	4.29 nd nd	1 of 9 (4.60)
GFTKDDYAMH	GISWNDGSIGYADSVK	VGRGGGYFDC	4.94 5.26 5.07	8 of 9 (5.27)
GFTFDDYAMH	GCSWNSCSIGYADSVH	VGRGGGYFDY	nd nd nd	0 of 9
GFSFDDYAMH	PISWNSGSIGYADSVK	VHRGGGYFDY	nd nd nd	1 of 9 (4.09)
YFTFDDYACH	GISWNSGSIGYADSCK	VGRGGGYFDY	nd nd nd	1 of 9 (5.02)
GFTFDDYAMH	GISWNSGSIGYWDSVK	VNWGGGYFDY	nd nd nd	1 of 9 (3.73)
GFKFDDYAMH	YISWNSGSIGYADSVK	VGRGGGYFDY	4.47 nd nd	0 of 9
GFTFFDYAMH	GISDNSGSIGYADSVK	VGRGGQYFDY	nd nd nd	2 of 9 (3.28)
GFTFDRYAMC	GISWNSGSIGYADSVK	VGRGGGYFDY	nd nd nd	0 of 9
GFTFDDYAMH	GISWNSGSIHYADSVK	VQRYGGYFDY	nd nd nd	0 of 9
GFTFDDYAMH	GISWNSGSIGYADSVK	VGRGGVRFDY	2.35 3.88 2.27	3 of 9 (3.91)
KFNFDDYAMH	GISWNSGSIGYADSFK	VGRGGGYFDY	2.64 2.56 3.09	2 of 9 (3.53)
GFTFDDRAMH	GISWNSGSIGYADRVK	VGRGGGYFDY	nd nd nd	1 of 9 (4.53)
MFTFGDYAMH	GISWTSGSIGYADSVK	VGRGGGYFDY	nd nd nd	0 of 9
GFTFDDYAMH	GISWNSGSPGYADSVK	VGRPGGYFLY	nd nd nd	1 of 9 (3.34)
GFPFDDYAMH	GISWNSGSIGYADSVK	VGRGGGYFND	3.09 3.43 3.63	4 of 9 (4.60)
GFSFDDYAWH	GISWNTGSIGYADSVK	VGRGGGYFDY	nd 5.09 4.05	0 of 9
GFTFDDHAMH	GISWNSGSIGYADSVK	VGRGGGVFDC	2.79 2.56 2.56	5 of 9 (4.71)
GFTGDDYAMH	GISWNSGSIGYADSVK	VERGGGYFDY	nd nd nd	1 of 9 (3.70)
GFTFDSYAMH	GISWNNGSCGYADSVK	VGRGGGYFDY	2.51 2.90 2.81	0 of 9
GFTFDDYAMH	GISWNSGSIDYADSVK	VGRPEGYFDY	nd nd nd	0 of 9
GFTFDDYAMP	GISWNSGSIGYSDSVK	VGRGIGYFDY	5.68 nd 4.51	2 of 9 (3.90)
GFTFDDCAMH	GISWNSGEIGYYDSVK	VGRGGGYFDY	3.68 4.73 3.74	0 of 9
GFTFDDYAMH	GISWNSGSINYADSVQ	VGRGGGYFDE	nd 5.11 nd	3 of 9 (5.22)
GFTFDFYVMH	GISWPSGSIGYADSVK	VGRGGGYFDY	nd nd nd	0 of 9
AFTFDDCAMH	GISWNSGSIGCADSVK	VGRGGGYFDY	nd nd nd	0 of 9

For reference, 6 entries of the list once more:

{"CDR-H1": "GFTFDDYAMH", "CDR-H2": "GHSWNGGSIGYADSVK", "CDR-H3": "VGRGGGYMDY", "log10 Kd (nM) by replicate": "nd nd nd", "empty controls": "0 of 9"}
{"CDR-H1": "GFTFDDYAMH", "CDR-H2": "GISWNSGSIGYWDSVK", "CDR-H3": "VNWGGGYFDY", "log10 Kd (nM) by replicate": "nd nd nd", "empty controls": "1 of 9 (3.73)"}
{"CDR-H1": "GFTFDDYAMH", "CDR-H2": "GISRNSGSPGYRDSVK", "CDR-H3": "VGRGGGYFDY", "log10 Kd (nM) by replicate": "4.36 nd nd", "empty controls": "3 of 9 (4.77)"}
{"CDR-H1": "GFKFDDYAMQ", "CDR-H2": "NISWNSGSIGYADSVK", "CDR-H3": "VGRGGGYFDY", "log10 Kd (nM) by replicate": "5.01 4.84 5.87", "empty controls": "5 of 9 (4.79)"}
{"CDR-H1": "GFSFDDYAMH", "CDR-H2": "PISWNSGSIGYADSVK", "CDR-H3": "VHRGGGYFDY", "log10 Kd (nM) by replicate": "nd nd nd", "empty controls": "1 of 9 (4.09)"}
{"CDR-H1": "GFTFDDYADH", "CDR-H2": "GISWNSSSIGYADSVK", "CDR-H3": "VGRGGGYFIY", "log10 Kd (nM) by replicate": "4.29 nd nd", "empty controls": "1 of 9 (4.60)"}

In this assay the parent's reference entry averaged 1.86; its copy inside this library read 0.88.
Background: pairings of library AAYL51 with three empty control strains gave a value in 21% of cases (median 4.54, 5th percentile 3.26). Values in that range, when seen in few replicates, are hard to tell from nonspecific mating. Also given: how often the same scFv was detected with the empty control strains, with their mean in brackets.

Values reported by Engelhart et al. 2022, doi:10.1038/s41597-022-01779-4 (FLAb copy).